The test system of the series is LANA N-terminal CTD peptide;human histone octamer WT (Kaposi's sarcoma-associated herpesvirus;Homo sapiens). The experiment in a line: ITC. In general terms: ITC needs no label: the signal is the heat of the interaction.

For one substance, Kd results are on record in paper PMC4764553, “Human cytomegalovirus IE1 protein alters the higher-order chromatin structure by targeting the acidic patch of the nucleosome” (eLife, 2016).

In general, Kd refers to the constant that tells how readily two partners part at equilibrium. Higher therefore signals a looser complex.

147-bp Widom 601 (human NCP) came in with a Kd of 250 nM. This counts as sub-micromolar.
